Results: ChEMBL document CHEMBL4346765, “Design, synthesis and biological evaluation of novel dithiocarbamate-substituted diphenylaminopyrimidine derivatives as BTK inhibitors” (Bioorg Med Chem, 2019)

Sequences of proteins named here, by UniProt entry; tags and fusion partners are left off. A change or cut given only in a name is not applied to a line headed by its entry.
UniProt Q06187: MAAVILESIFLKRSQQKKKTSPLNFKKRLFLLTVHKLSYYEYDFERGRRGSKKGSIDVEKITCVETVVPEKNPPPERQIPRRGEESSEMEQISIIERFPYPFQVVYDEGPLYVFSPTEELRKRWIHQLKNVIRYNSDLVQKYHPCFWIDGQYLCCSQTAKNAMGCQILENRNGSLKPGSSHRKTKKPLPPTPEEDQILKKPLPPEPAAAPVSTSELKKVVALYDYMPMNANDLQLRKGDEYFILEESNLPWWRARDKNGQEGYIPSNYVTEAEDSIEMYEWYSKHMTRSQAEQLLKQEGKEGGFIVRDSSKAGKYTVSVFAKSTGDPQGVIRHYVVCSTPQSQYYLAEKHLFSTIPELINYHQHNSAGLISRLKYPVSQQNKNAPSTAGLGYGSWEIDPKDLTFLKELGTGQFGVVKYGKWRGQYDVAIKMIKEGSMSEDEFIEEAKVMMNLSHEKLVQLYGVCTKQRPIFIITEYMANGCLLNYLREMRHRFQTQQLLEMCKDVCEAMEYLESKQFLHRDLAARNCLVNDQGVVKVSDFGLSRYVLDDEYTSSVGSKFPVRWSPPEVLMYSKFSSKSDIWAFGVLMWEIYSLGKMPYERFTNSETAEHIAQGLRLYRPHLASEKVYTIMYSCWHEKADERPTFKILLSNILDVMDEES

Target: Tyrosine-protein kinase BTK (Homo sapiens, UniProt Q06187)
Assay: Inhibition of human recombinant full length BTK expressed in baculovirus in Sf9 insect cells using Poly (4:1 Glu, Tyr) as substrate incubated for 1 hr by ADP-Glo assay

IC50: 2.12 nM
Structure (SMILES): C=CC(=O)Nc1cccc(Nc2nc(Nc3ccc(OCCOC)cc3)ncc2F)c1 [SPEBRUTINIB]
